Laboratory results published in ChEMBL document CHEMBL2150859, “Design, synthesis, and evaluation of 3,5-disubstituted 7-azaindoles as Trk inhibitors with anticancer and antiangiogenic activities” (J Med Chem, 2012).

Assay: Selectivity ratio of Kd for PI3Kalpha to Kd for TRKA

For Nc1cccc(-c2cnc3[nH]cc(-c4ccncc4)c3c2)c1, the Selectivity ratio was 181.
